By UniProt entry, the sequences of proteins in these tests, tags left out. Residues count along the entry.
UniProt P00742, 41-179 limits assumed: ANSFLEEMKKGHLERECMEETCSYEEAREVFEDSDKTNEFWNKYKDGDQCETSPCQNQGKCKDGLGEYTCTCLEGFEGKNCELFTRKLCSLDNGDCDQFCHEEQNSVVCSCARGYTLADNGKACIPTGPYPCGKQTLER
UniProt P00742, 235-488 limits assumed: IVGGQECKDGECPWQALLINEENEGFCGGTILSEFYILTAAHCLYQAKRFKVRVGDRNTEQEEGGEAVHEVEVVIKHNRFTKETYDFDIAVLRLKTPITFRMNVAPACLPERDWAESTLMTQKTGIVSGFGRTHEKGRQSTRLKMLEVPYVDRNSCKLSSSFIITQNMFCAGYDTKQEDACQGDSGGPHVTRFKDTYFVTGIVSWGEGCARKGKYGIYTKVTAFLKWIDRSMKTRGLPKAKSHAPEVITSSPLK

In US20250186563A1, “UNIT DOSE FORMULATION OF ANTIDOTES FOR FACTOR XA INHIBITORS AND METHODS OF USING THE SAME” (Alexion Pharmaceuticals, Inc., priority 2009, published 2025):

Tests used:
[1] = target: T1, fXa (Homo sapiens, UniProt P00742); test: fXa chromogenic activity assay: inhibition by fXa inhibitors and reversal by antidote; assay type: biochemical; conditions: for % Correction of inhibition by fXa inhibitors: fXa 3.0 nM
T1 construct: purified active human plasma derived fXa (3 nM); from tissue; host or cells: human plasma

[2] = tested on: betrixaban anticoagulation (whole blood INR); test: In vivo mouse model, PK-PD of betrixaban with antidote; parameters: species or system C57Bl/6 mice
Description: 15 mg/kg was used for antidote treated group. A single intravenous (IV) injection of antidote (300 ug/200 μL) or vehicle (normal saline, 200 μL) was administered 5 minutes prior to the 1.5 hr. time point.
Blood samples (0.5 mL) were obtained in 50 μL trisodium citrate. Whole blood INR was measured using Hemochron Jr. cartridges (International Technidyne Corporation) per the manufacture's instructions.
15 mg/kg was used for antidote (300 μg/200 μL) treated group.
Vehicle (control_1) or r-Antidote (1 injection) was administered 5 min prior to the 1 hr. time point. […] Mouse blood samples were taken at 2 hr. for vehicle (control_2) and r-Antidote (2 injections) treated mice.

[3] = tested on: PT of rhesus monkey plasma; test: Prothrombin time in rhesus monkey plasma; assay type: biochemical, rhesus monkeys
Description: Prothrombin times were measured as in Example 12.

[4] = tested on: enoxaparin-induced anticoagulation; test: Enoxaparin-induced anticoagulation and its reversal in rats; assay type: in vivo; conditions: enoxaparin 3.0 mg/kg, r-Antidote 5 mg bolus + 5 mg/h or protamine sulfate 0.9 mg
Description: Rats were anesthetized by intraperitoneal dosing of ketamine cocktail, rapidly catheterized for (jugular vein) administration of enoxaparin and a second catheter (femoral vein) was inserted for serial blood sampling. Blood sampling catheter patency was maintained by slow infusion of normal saline between samples. Rats were administered enoxaparin (Aventis Pharma, 100 mg/ml) diluted in normal saline at 6, 3, or 1 mg/kg as an IV bolus injection (1 mL). […] INR measurements were determined using Hemochron Jr point of care testing device.
In order to test the ability of r-Antidote to reverse enoxaparin induced anticoagulation and to compare the results to the extent of protamine reversal, we tested the agents in the following regimen: Rats were administered enoxaparin diluted into normal saline at 3.0 mg/kg or vehicle (normal saline) as an intravenous bolus injection (1 mL) at t=0. At 10 minutes post enoxaparin injection, vehicle, antidote (5 mg) or protamine sulfate (0.9 mg, Sigma) was administered intravenously as a 5 minute bolus injection. This was followed by a maintenance infusion for the remainder of the study (additional 45 minutes, 5 mg/h for r-Antidote and normal saline for protamine). […] Plasma aPTT measurements were determined using a MLA Electra 800 Automatic coagulation timer. […]

[5] = tested on: PT of pooled human plasma; test: Prothrombin time (PT) human plasma clotting assay; assay type: biochemical; conditions: for correction of anticoagulation (PT): 1.9 μM recombinant antidote
[6] = rhesus monkey, in vivo, iv, 10 mg
Description: Two animals were each dosed with 10 mg antidote by intravenous dosing over a ten minute period. Citrate anticoagulated plasma sample analysis for determination of T1/2 were carried out in a manner similar to that in the rat study (Example 23) except for the pretreatment of plasma samples with barium citrate absorption to remove endogenous monkey fX.
The mixture was kept on ice for 60 min and clarified by centrifugation with a micro-centrifuge at 13000 rpm for 15 min. The supernatant (30 uL) was mixed with 20 uL TBS/EDTA buffer (20 mM Tris/150 mM NaCl/50 mM EDTA, pH 7.4). […] Antidote concentration was then determined by the same ELISA procedure as for rat plasma (Example 23).

[7] = tested on: blood loss due to fondaparinux; test: Rat tail transection blood loss model, fondaparinux; assay type: in vivo, Sprague-Dawley rats; conditions: fondaparinux 25 mg/kg IV bolus; r-Antidote 6 mg bolus + 6 mg/hr infusion
Description: The effect of r-Antidote on reversal of blood loss due to enoxaparin anticoagulation was tested in Sprague-Dawley rats. Specifically, rat tail transection blood loss model for restoration of hemostasis was employed. The enoxaparin was dosed by IV bolus (4.5 mg/kg). The r-Antidote was administered as two doses: 1) a 2 milligram bolus and then infused at a rate of 2 mg/hour for a total of 15 minutes; and 2) a 4 milligram bolus and then infused at a rate of 4 mg/hour for a total of 15 minutes. Blood loss reversal was also tested using the vehicle. Immediately after the bolus injection of the r-Antidote was complete and the infusion started, the tip of the rat's tail was transected with a scalpel blade and placed into a vial containing physiological saline at 37° C. The tail was allowed to bleed for 15 minutes. The resulting blood volume was determined by lysis of red blood cells, measuring the hemoglobin concentration spectrophotometrically and estimating the blood volume by comparison against a standard curve. Decreased blood loss correlated with both r-Antidote plasma concentrations (r^2=0.80) and a reduction of anti-fXa units (r^2=0.89). The results are provided in FIG. 38 (AD refers to the r-Antidote).
The r-Antidote was provided as a 6 mg bolus and then another 6 g/hr for 15 min as an infusion.

[8] = r-Antidote treated mice, […] after 15 mg/kg betrixaban PO
[9] = 1 μM apixaban + 380 nM rAntidote
[10] = 1 μM apixaban + 760 nM rAntidote
[11] = 1 μM apixaban + 1.52 μM rAntidote
[12] = […] apixaban + 1.52 μM rAntidote
[13] = […] apixaban + 1.90 μM rAntidote

B1: r-Antidote: fXa derivative lacking the 6-39 amino acid residues of SEQ ID NO. 3, expressed in CHO cells, after removal of the linker (SEQ ID NO. 13) (protein)
chain: ANSFLFWNKYKDGDQCETSPCQNQGKCKDGLGEYTCTCLEGFEGKNCELFTRKLCSLDNGDCDQFCHEEQNSVVCSCARGYTLADNGKACIPTGPYPCGKQTLERIVGGQECKDGECPWQALLINEENEGFCGGTILSEFYILTAAHCLYQAKRFKVRVGDRNTEQEEGGEAVHEVEVVIKHNRFTKETYDFDIAVLRLKTPITFRMNVAPACLPERDWAESTLMTQKTGIVSGFGRTHEKGRQSTRLKMLEVPYVDRNSCKLSSSFIITQNMFCAGYDTKQEDACQGDAGGPHVTRFKDTYFVTGIVSWGEGCARKGKYGIYTKVTAFLKWIDRSMKTRGLPKAKSHAPEVITSSPLK
Question: For B1, which reversal of inhibition ([1]; 186 nM r-Antidote, apixaban 7.5 nM) is on record?
Answer: > 70%

Question: And the correction of inhibition ([1]; 186 nM r-Antidote, betrixaban 7.5 nM)?
Answer: > 95%

Question: What about the correction of inhibition ([1]; 186 nM r-Antidote, rivaroxaban 7.5 nM) of the same molecule?
Answer: > 95%

Question: And the “% Correction of inhibition by fXa inhibitors” value (from here on “% Correction of inhibition”) ([1]; r-Antidote 9.3 nM, Apixaban 7.5 nM)?
Answer: 13.3%

Question: And the “% Correction of inhibition” value ([1]; r-Antidote 9.3 nM, Betrixaban 7.5 nM)?
Answer: 21.5%

Question: And the “% Correction of inhibition” value ([1]; r-Antidote 9.3 nM, Rivaroxaban 7.5 nM)?
Answer: 23.2%

Question: What about the “% Correction of inhibition” value ([1]; r-Antidote 18.6 nM, Apixaban 7.5 nM) of the same molecule?
Answer: 33.5%

Question: And the “% Correction of inhibition” value ([1]; r-Antidote 18.6 nM, Betrixaban 7.5 nM)?
Answer: 52.7%

Question: And the “% Correction of inhibition” value ([1]; r-Antidote 18.6 nM, Rivaroxaban 7.5 nM)?
Answer: 54.2%

Question: What about the “% Correction of inhibition” value ([1]; r-Antidote 37.2 nM, Apixaban 7.5 nM) of the same molecule?
Answer: 49.9%

Question: And the “% Correction of inhibition” value ([1]; r-Antidote 37.2 nM, Betrixaban 7.5 nM)?
Answer: 75.5%

Question: And the “% Correction of inhibition” value ([1]; r-Antidote 37.2 nM, Rivaroxaban 7.5 nM)?
Answer: 72.6%

Question: What about the “% Correction of inhibition” value ([1]; r-Antidote 55.8 nM, Apixaban 7.5 nM) of the same molecule?
Answer: 59.2%

Question: And the “% Correction of inhibition” value ([1]; r-Antidote 55.8 nM, Betrixaban 7.5 nM)?
Answer: 86.5%

Question: What about the “% Correction of inhibition” value ([1]; r-Antidote 55.8 nM, Rivaroxaban 7.5 nM) of the same molecule?
Answer: 79.9%

Question: And the “% Correction of inhibition” value ([1]; r-Antidote 93.1 nM, Apixaban 7.5 nM)?
Answer: 64.4%

Question: And the “% Correction of inhibition” value ([1]; r-Antidote 93.1 nM, Betrixaban 7.5 nM)?
Answer: 94.9%

Question: What about the “% Correction of inhibition” value ([1]; r-Antidote 93.1 nM, Rivaroxaban 7.5 nM) of the same molecule?
Answer: 89.1%

Question: And the “% Correction of inhibition” value ([1]; r-Antidote 148.9 nM, Apixaban 7.5 nM)?
Answer: 74.8%

Question: What about the “% Correction of inhibition” value ([1]; r-Antidote 148.9 nM, Betrixaban 7.5 nM) of the same molecule?
Answer: 99.3%

Question: And the “% Correction of inhibition” value ([1]; r-Antidote 148.9 nM, Rivaroxaban 7.5 nM)?
Answer: 96.7%

Question: What about the “% Correction of inhibition” value ([1]; r-Antidote 186.1 nM, Apixaban 7.5 nM) of the same molecule?
Answer: 72.6%

Question: What about the “% Correction of inhibition” value ([1]; r-Antidote 186.1 nM, Betrixaban 7.5 nM) of the same molecule?
Answer: 99.5%

Question: And the “% Correction of inhibition” value ([1]; r-Antidote 186.1 nM, Rivaroxaban 7.5 nM)?
Answer: 94.8%

Question: What about the “reduction of functional betrixaban / correction of whole blood INR” value ([2]; mice, betrixaban 15 mg/kg PO, single IV injection of antidote (300 ug)) of the same molecule?
Answer: > 50%

Question: And the “% Correction, Mean” value [2, 8]?
Answer: 77.3%

Question: What about the “Expected INR, Mean” value [2, 8] of the same molecule?
Answer: 3.0

Question: And the “Measured INR, Mean” value ([2]; r-Antidote treated mice, […] after 15 mg/kg betrixaban PO, 5 min after antidote injection)?
Answer: 1.3

Question: And the PT ([3]; 250 nM rivaroxaban + 244 nM r-Antidote)?
Answer: 25 ± 7 s

Question: What about the PT ([3]; 250 nM rivaroxaban + 488 nM r-Antidote) of the same molecule?
Answer: 19.9 ± 1.9 s

Question: What about the PT ([3]; r-Antidote alone in baseline plasma) of the same molecule?
Answer: 17.7 s

Question: And the “reversal of enoxaparin-induced anticoagulation (plasma aPTT)” value [4]?
Answer: sustained reversal

Question: What about the “Fold Change” value [5, 9] of the same molecule?
Answer: 1.09

Question: What about the “PT” value [5, 9] of the same molecule?
Answer: 15.3 s

Question: And the “Fold Change” value [5, 10]?
Answer: 1.06

Question: And the “PT” value [5, 10]?
Answer: 14.9 s

Question: What about the “Fold Change” value [5, 11] of the same molecule?
Answer: 1.01

Question: And the “PT” value [5, 11]?
Answer: 14.2 s

Question: And the “Fold Change” value ([5]; 1 μM apixaban + […] rAntidote)?
Answer: 1.01

Question: And the “PT” value ([5]; 1 μM apixaban + […] rAntidote)?
Answer: 14.2 s

Question: What about the “reversal of anticoagulant effect of rivaroxaban (PT)” value ([5]; 1 μM rivaroxaban + r-Antidote) of the same molecule?
Answer: dose-dependently and completely reversed

Question: And the “PT” value ([5]; 1.52 μM rAntidote alone)?
Answer: 14 s

Question: What about the “PT” value ([5]; 1.90 μM rAntidote alone) of the same molecule?
Answer: 14.2 s

Question: And the “correction of anticoagulation (PT)” value ([5]; 1 μM rivaroxaban)?
Answer: 100%

Question: What about the “correction of anticoagulation (PT)” value ([5]; […] apixaban) of the same molecule?
Answer: 97%

Question: What about the PT ([5]; 1.9 M r-Antidote alone) of the same molecule?
Answer: 14.2 s

Question: What about the “Fold Change” value [5, 12] of the same molecule?
Answer: 1.04

Question: And the “PT” value [5, 12]?
Answer: 14.6 s

Question: And the “Fold Change” value [5, 13]?
Answer: 1.01

Question: What about the “PT” value [5, 13] of the same molecule?
Answer: 14.3 s

Question: What about the “Plasma half life of clearance (T1/2)” value [6] of the same molecule?
Answer: approximately 30 minutes

Question: And the “reversal of blood loss due to fondaparinux” value [7]?
Answer: completely corrected; also recorded: completely reversed

“Also recorded” adds a separate entry of the source.
